Broadly, the pIC50 is the negative decadic logarithm of the IC50, by convention in mol/L. Low readings indicate a high IC50, high ones a low IC50.

The test deals with Sodium- and chloride-dependent GABA transporter 1 (Mus musculus, UniProt P31648). Kind of test: Inhibition of mouse GAT1 mediated [3]GABA uptake expressed in HEK293 cells after 3 mins by scintillation counting. The test is classed as cell-based.

Molecules are shown by their SMILES. pIC50: −log10 of the molar value.

In turn, `COc1ccc(C(OCCN2CCC[C@H](C(=O)O)C2)(c2ccc(OC)cc2)c2ccc(OC)cc2)cc1` showed a pIC50 of 3.70.

The values above are taken from ChEMBL document CHEMBL3751783, “Straightforward and effective synthesis of γ-aminobutyric acid transporter subtype 2-selective acyl-substituted azaspiro[4.5]decanes” (Bioorg Med Chem Lett, 2016).
